In PMC7723054:
This is one part of the list.

Key:
Experiment in all cases: FOREST: bead pull-down of RNA structure library v1, barcode microarray; U1A/LIN28A: 20 mM HEPES pH 7.5, 80 mM KCl, 20 mM NaCl, 10% glycerol, 2 mM DTT, 0.1 ug/uL BSA, 4 C; BG4/CIRBP/DHX36: 10 mM Tris-HCl pH 7.5, 100 mM KCl (or LiCl),; high values mean tight binding
[1] = molecular target: T1, LIN28A (human?, UniProt Q9H9Z2 1-209)
T1 sequence: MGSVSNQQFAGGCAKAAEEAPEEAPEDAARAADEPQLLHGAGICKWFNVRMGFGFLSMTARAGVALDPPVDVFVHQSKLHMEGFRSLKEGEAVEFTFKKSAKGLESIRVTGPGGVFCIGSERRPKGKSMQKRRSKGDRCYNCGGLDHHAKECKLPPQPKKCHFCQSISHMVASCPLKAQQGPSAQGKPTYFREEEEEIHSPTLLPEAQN

[2] = molecular target: T2, CIRBP (Homo sapiens, UniProt Q14011 1-172)
T2 sequence: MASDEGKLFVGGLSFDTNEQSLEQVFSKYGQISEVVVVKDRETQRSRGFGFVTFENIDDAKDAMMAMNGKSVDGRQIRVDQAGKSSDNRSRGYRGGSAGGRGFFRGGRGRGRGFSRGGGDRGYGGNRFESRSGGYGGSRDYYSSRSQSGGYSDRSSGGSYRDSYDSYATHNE

[3] = molecular target: T3, DHX36 (Homo sapiens, UniProt Q9H2U1 1-1008)
T3 sequence: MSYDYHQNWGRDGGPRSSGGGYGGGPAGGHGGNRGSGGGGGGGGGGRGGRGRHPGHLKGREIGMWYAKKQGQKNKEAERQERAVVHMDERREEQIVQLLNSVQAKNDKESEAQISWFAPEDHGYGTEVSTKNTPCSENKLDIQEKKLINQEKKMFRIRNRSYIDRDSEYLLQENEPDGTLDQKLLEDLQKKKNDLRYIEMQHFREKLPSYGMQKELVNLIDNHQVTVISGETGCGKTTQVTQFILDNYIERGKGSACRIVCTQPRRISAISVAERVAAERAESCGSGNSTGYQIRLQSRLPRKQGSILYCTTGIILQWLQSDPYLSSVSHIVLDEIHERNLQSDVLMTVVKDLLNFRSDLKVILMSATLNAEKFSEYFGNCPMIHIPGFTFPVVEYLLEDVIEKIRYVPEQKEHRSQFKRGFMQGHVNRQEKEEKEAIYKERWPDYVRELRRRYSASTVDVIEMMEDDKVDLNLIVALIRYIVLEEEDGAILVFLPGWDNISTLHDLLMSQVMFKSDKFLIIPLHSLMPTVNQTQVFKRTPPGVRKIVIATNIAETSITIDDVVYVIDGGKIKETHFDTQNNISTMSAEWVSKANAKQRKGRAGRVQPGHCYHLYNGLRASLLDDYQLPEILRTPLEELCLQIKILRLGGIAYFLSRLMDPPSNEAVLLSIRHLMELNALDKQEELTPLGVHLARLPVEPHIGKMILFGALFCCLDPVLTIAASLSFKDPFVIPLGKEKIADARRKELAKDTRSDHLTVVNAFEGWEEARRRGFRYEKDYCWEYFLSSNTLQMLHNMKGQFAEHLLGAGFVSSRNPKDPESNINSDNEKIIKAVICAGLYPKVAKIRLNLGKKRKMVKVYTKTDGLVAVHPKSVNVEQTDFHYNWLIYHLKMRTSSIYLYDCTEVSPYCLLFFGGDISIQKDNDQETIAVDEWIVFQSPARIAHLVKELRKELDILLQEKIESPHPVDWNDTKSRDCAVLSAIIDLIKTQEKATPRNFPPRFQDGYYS

B1: hsa-mir-5584 (structured_RNA)
RNA: GGGACGAGCCUGUCAAGUAAUGCCAUCUGGUGUACGAAGUUUCAGCACUAGAUUUGAAUCCAGACCUUUAGUGCUGAAGCUUCGUGCAC
binding signal [1]: 0.906 z-score | binding signal [2]: -0.0998 z-score | binding signal [3]: 0.725 z-score

B2: hsa-mir-548v (structured_RNA)
RNA: GGGACAUCCGAGACGGGAGUGAAAACUAGGUGUACGAAGUUUCAGCGGUUUUGCCAUCAUGCCAAAAGCUGCUGAAGCUUCGUGCAC
binding signal [1]: 0.895 z-score | binding signal [2]: 0.853 z-score | binding signal [3]: 0.54 z-score

B3: hsa-mir-1908 (structured_RNA)
RNA: GGGAACGGAGGCCCAUCAGGAUUUUAUCGGUGUACGAAGUUUCAGCUUGGUCCGUAUGUGUGGUGCCACCGGGCUGAAGCUUCGUGCAC
binding signal [1]: 0.892 z-score | binding signal [2]: -0.533 z-score | binding signal [3]: -0.405 z-score

B4: hsa-mir-4437 (structured_RNA)
RNA: GGGAAGAGUUCGUUAGCUUGCCCAAAACGGUGUACGAAGUUUCAGCUCCACAAGGAGGGGAUGACCCUUGUGGGGCUGAAGCUUCGUGCAC
binding signal [1]: 0.884 z-score | binding signal [2]: -1.06 z-score | binding signal [3]: 0.953 z-score

B5: hsa-mir-5572 (structured_RNA)
RNA: GGGAACCUCACGAUGCACUUCGGUAGGAGGUGUACGAAGUUUCAGCCAGCCUGGGGCAUCGGUUGGCUGAAGCUUCGUGCAC
binding signal [1]: 0.879 z-score | binding signal [2]: -2.29 z-score | binding signal [3]: -0.319 z-score

B6: hsa-mir-548a-3 (structured_RNA)
RNA: GGGAAACAGCAAAUCAGGUCUACGCGACGGUGUACGAAGUUUCAGCUUUACCAUUACUUUCAAUGGCAAAGCUGAAGCUUCGUGCAC
binding signal [1]: 0.875 z-score | binding signal [2]: 1.5 z-score | binding signal [3]: 0.398 z-score

B7: hsa-mir-4514 (structured_RNA)
RNA: GGGAAACAGAGUGCGGUCGUAUGGCGAAGGUGUACGAAGUUUCAGCGAAACAUCUUUUACGCUGAAGCUUCGUGCAC
binding signal [1]: 0.875 z-score | binding signal [2]: 1.14 z-score | binding signal [3]: -0.592 z-score

B8: hsa-mir-4770 (structured_RNA)
RNA: GGGAACUAGUCGGGACACCGAUAAUAACGGUGUACGAAGUUUCAGCCUAUCCUUCCCUUGGAAAAUGAUCUGAGGCUGAAGCUUCGUGCAC
binding signal [1]: 0.874 z-score | binding signal [2]: -0.346 z-score | binding signal [3]: -0.239 z-score

B9: hsa-mir-3199-2 (structured_RNA)
RNA: GGGAAGUUAAGCCUAACACCACAAGACCGGUGUACGAAGUUUCAGCAGUUUCUGGAAUGUCAGAACUUCCAGAAACUGCUGAAGCUUCGUGCAC
binding signal [1]: 0.864 z-score | binding signal [2]: 0.858 z-score | binding signal [3]: 0.304 z-score

B10: hsa-mir-4676 (structured_RNA)
RNA: GGGAAUUGUUACACGCGACUAGGAGCGCGGUGUACGAAGUUUCAGCAGUGAGUUGAUUACUUCUCACUGCUGAAGCUUCGUGCAC
binding signal [1]: 0.86 z-score | binding signal [2]: 0.0489 z-score | binding signal [3]: -0.329 z-score

B11: hsa-mir-498 (structured_RNA)
RNA: GGGAACGCUGCUGGGAACCCAAUACUGUGGUGUACGAAGUUUCAGCUUUCUAUAACUGGAUGAAAGCUGAAGCUUCGUGCAC
binding signal [1]: 0.859 z-score | binding signal [2]: -0.759 z-score | binding signal [3]: 0.289 z-score

B12: hsa-mir-1295a (structured_RNA)
RNA: GGGACUGUAGGACCAAGCGUUAGUUAAUGGUGUACGAAGUUUCAGCCUAUUCAGAAAUGUGGCCUGUGAUUAGGCUGAAGCUUCGUGCAC
binding signal [1]: 0.857 z-score | binding signal [2]: 0.541 z-score | binding signal [3]: -0.72 z-score

B13: hsa-mir-6500 (structured_RNA)
RNA: GGGAAUCAUGGGAAGUAUUACGUACGACGGUGUACGAAGUUUCAGCGUGUCCUUUCUUCUGAGAGCUGGACACGCUGAAGCUUCGUGCAC
binding signal [1]: 0.857 z-score | binding signal [2]: 1.46 z-score | binding signal [3]: 1.16 z-score
